Only a part of the results on these compounds is given; other tests are left out.
Assays:
[1] = tested on: mature outbred male white rats; assay: Sedative-hypnotic activity: EEG analysis of sleep-wake cycle stages in freely moving rats
Experimental: The study of the sedative-hypnotic effect of Almacin vs. comparator agents was conducted on 35 mature outbred male white rats weighing 230-250 g. The study was conducted in accordance with “Methodological Guidelines for Conducting a Study of Sedative-Hypnotic Activity of Pharmaceutical Substances” as set forth in “The Guidance Manual for Experimental (non-clinical) Studies of Novel Pharmaceutical Substances” [11].
The neurophysiological (electrophysiological) criteria of various stages of the sleep-wake cycle were analyzed. Electrodes were surgically implanted into the sensorimotor area of the cerebral cortex, dorsal hippocampus, and neck muscles of Nembutal-anesthetized rats (50 mg/kg, intramuscular) in an encephalometer, in accordance with the brain atlas, 5-7 days prior to the experiments on sleep monitoring. Electrobiological activity of the brain (electroencephalography, EEG) was recorded for unrestrained animals in the morning/daytime hours for at least 5 hrs. Sleep phases were determined experimentally by the electrical activity of the cerebral cortex and dorsal hippocampus, and by the electromyogram. In the analysis of sleep-wake cycles, the software recorded the following indicators: latent time from the beginning of registration to the appearance of the first episode of slow-wave and fast-wave (paradoxical, REM) sleep; total number of slow-wave and fast-wave sleep episodes and episodes of wakefulness; duration of all slow-wave and fast-wave sleep episodes and all episodes of wakefulness; percentage of all slow-wave and fast-wave sleep episodes and all episodes of wakefulness calculated by the ratio between the duration of said indicators and the duration of the total EEG record.
The study was conducted on 35 mature outbred male white rats weighing 230-250 g. The animals were received from the central nursery for laboratory animals “Stolbovaya”, Moscow Oblast. The animals were kept in accordance with the principles of Good Laboratory Practice for nonclinical studies in the Russian Federation. The animals were kept in a vivarium at 20-22° C., with the light-dark cycle of 12 hours of light and 12 hours of darkness, in plastic cages T/4A, 580×375×200 mm in size, stainless steel cover, and dust-free litter covered with wood shavings, 8 rats per cage. The animals were allowed free access to food and water and were fed a full ration of extruded pelletized feed and drinking water. The experiments were conducted during the first half of the day.
The study of the sedative-hypnotic activity of the agent of the present invention was conducted in accordance with “Methodological Guidelines for Conducting a Study of Sedative-Hypnotic Activity of Pharmaceutical Substances” as set forth in “The Guidance Manual for Experimental (non-clinical) Studies of Novel Pharmaceutical Substances” [11]. The neurophysiological (electrophysiological) criteria of various stages of the sleep-wake cycle were analyzed.
Electrodes were surgically implanted into Nembutal-anesthetized rats (50 mg/kg, intramuscular) 5-7 days prior to the experiments on sleep monitoring. Long-term electrodes for registration of electrical activity were implanted in an encephalometer into the sensorimotor area of the cortex, dorsal hippocampus, and neck muscles. Dorsal hippocampus coordinates were calculated in accordance with the brain atlas of the rats. Electrical activity of the brain and electromyograms of the neck muscles were recorded with nichrome wire electrodes with varnished insulation, 90 mcm in diameter for the hippocampus, and 120 mcm—for the sensorimotor area of the cortex and neck muscle implantation. The ends of the electrodes were soldered to silver-plated contacts 0.8-1 mm in diameter, which were affixed to the cranial bones with dental visfat-cement. During the experiment, the contacts were attached to lead wires connected to the electroencephalograph's control unit. […]

[2] = doses exceeding the recommended therapeutic dose of glycine 20-fold; cited from earlier work
[3] = 5-hr. registration, agent 2 mg/kg, glycine 10 mg/kg, Donormyl 15 mg/kg

Question: For “glycine immobilized on detonation nanodiamond particles 2-10 nm in size”, which “Decrease of fast-wave sleep onset latency compared to control” value ([1]; 2 mg/kg) is on record?
Answer: Its value is 21%.

Question: And the “Decrease of slow-wave sleep onset latency compared to control” value ([1]; 2 mg/kg)?
Answer: The value was 26%.

Question: What about the “Increase in the number of fast-wave sleep episodes compared to control” value ([1]; 2 mg/kg, 5-hour registration period) of the same substance?
Answer: The value was 31%.

Question: What about the “Increase in the total duration of fast-wave sleep compared to control” value ([1]; 2 mg/kg, 5-hr. registration) of the same substance?
Answer: Its value is 66%.

Question: And the “Reduction in the number of wakefulness episodes compared to control” value ([1]; 5-hour registration, agent 2 mg/kg, glycine 10 mg/kg, Donormyl 15 mg/kg)?
Answer: Its value is 27%.

Question: And the “Reduction of the duration of wakefulness compared to control” value ([1]; 5-hr. registration, agent 2 mg/kg, Donormyl 15 mg/kg)?
Answer: The value was 26%.

Question: What about the “Effect on the percentage of fast-wave sleep compared to control (in words)” value [1, 3] of the same substance?
Answer: The value was “statistically significant increase”.

Question: And the “Effect on the percentage of wakefulness compared to control (in words)” value [1, 3]?
Answer: Its value is “decrease”.

Question: What about the “Theta-rhythm synchronization and modulation in the electrograms of sensorimotor cortex and dorsal hippocampus in the fast-wave (paradoxical) sleep phase” value ([1]; FIG. 2) of the same substance?
Answer: Its value is “enhance the theta-rhythm synchronization and modulation”.

Question: And the Overall sedative-hypnotic effect ([1]; agent 2 mg/kg versus glycine and Donormyl 15 mg/kg)?
Answer: The Overall sedative-hypnotic effect was “pronounced sedative-hypnotic effect”.

Question: What about the Number of episodes, fast-wave sleep ([1]; intraperitoneal, N = 7, agent 2 mg/kg, glycine 10 mg/kg, Donormyl 15 mg/kg, 5-hour registration, control 14.7 ± 1.59) of the same substance?
Answer: The Number of episodes, fast-wave sleep was 19.4 ·.

Question: And the Number of episodes, wakefulness ([1]; intraperitoneal, N = 7, agent 2 mg/kg, glycine 10 mg/kg, Donormyl 15 mg/kg, 5-hour registration, control 38.7 ± 1.46)?
Answer: Its Number of episodes, wakefulness is 28.4 ·.

Question: What about the “Number of episodes, slow-wave sleep” value ([1]; intraperitoneal, N = 7, agent 2 mg/kg, glycine 10 mg/kg, Donormyl 15 mg/kg, 5-hour registration, control 39.3 ± 1.46) of the same substance?
Answer: Its value is 33.9 ± 1.81.

Question: And the “Ratio between the duration of fast-wave sleep and the duration of total recording period” value ([1]; intraperitoneal, N = 7, agent 2 mg/kg, glycine 10 mg/kg, Donormyl 15 mg/kg, control 4.9 ± 0.78)?
Answer: The value was 8.8 ± 1.25 %.

Question: And the “Duration, fast-wave sleep” value ([1]; intraperitoneal, N = 7, agent 2 mg/kg, glycine 10 mg/kg, Donormyl 15 mg/kg, control 16.6 ± 2.78)?
Answer: The value was 27.6 ± 3.93 min.

Question: What about the “Ratio between the duration of wakefulness and the duration of total recording period” value ([1]; intraperitoneal, N = 7, agent 2 mg/kg, glycine 10 mg/kg, Donormyl 15 mg/kg, control 33.2 ± 2.73) of the same substance?
Answer: The value was 26.8 ± 3.80 %.

Question: What about the “Ratio between the duration of slow-wave sleep and the duration of total recording period” value ([1]; intraperitoneal, N = 7, agent 2 mg/kg, glycine 10 mg/kg, Donormyl 15 mg/kg, control 61.6 ± 2.49) of the same substance?
Answer: Its value is 64.4 ± 4.62%.

Question: What about the “Duration, wakefulness” value ([1]; intraperitoneal, N = 7, agent 2 mg/kg, glycine 10 mg/kg, Donormyl 15 mg/kg, control 111.5 ± 9.58) of the same substance?
Answer: Its value is 83.5 ± 10.69 min.

Question: What about the “Duration, slow-wave sleep” value ([1]; intraperitoneal, N = 7, agent 2 mg/kg, glycine 10 mg/kg, Donormyl 15 mg/kg, control 206.3 ± 7.47) of the same substance?
Answer: The value was 205.0 ± 18.17 min.

Question: And the “Latency, slow-wave sleep” value ([1]; intraperitoneal, n = 7, agent 2 mg/kg, glycine 10 mg/kg, Donormyl 15 mg/kg, control 17.0 ± 2.4, time from start of EEG registration to first episode)?
Answer: The value was 12.6 ± 3.4 min.

Question: What about the “Latency, fast-wave sleep” value ([1]; intraperitoneal, n = 7, agent 2 mg/kg, glycine 10 mg/kg, Donormyl 15 mg/kg, control 69.0 ± 4.44, time from start of EEG registration to first episode) of the same substance?
Answer: The value was 55.0 ± 3.51 min.

Question: And the “Side or toxic effects” value [2]?
Answer: Its value is “did not cause any side or toxic effects”.
